From BindingDB's records for patent US11433071 (Incyte Corporation; Incyte Holdings Corporation, 2022)

Target: T1, Phosphatidylinositol 4,5-bisphosphate 3-kinase catalytic subunit delta isoform (Homo sapiens, UniProt O00329)
T1 sequence (O00329 whole entry): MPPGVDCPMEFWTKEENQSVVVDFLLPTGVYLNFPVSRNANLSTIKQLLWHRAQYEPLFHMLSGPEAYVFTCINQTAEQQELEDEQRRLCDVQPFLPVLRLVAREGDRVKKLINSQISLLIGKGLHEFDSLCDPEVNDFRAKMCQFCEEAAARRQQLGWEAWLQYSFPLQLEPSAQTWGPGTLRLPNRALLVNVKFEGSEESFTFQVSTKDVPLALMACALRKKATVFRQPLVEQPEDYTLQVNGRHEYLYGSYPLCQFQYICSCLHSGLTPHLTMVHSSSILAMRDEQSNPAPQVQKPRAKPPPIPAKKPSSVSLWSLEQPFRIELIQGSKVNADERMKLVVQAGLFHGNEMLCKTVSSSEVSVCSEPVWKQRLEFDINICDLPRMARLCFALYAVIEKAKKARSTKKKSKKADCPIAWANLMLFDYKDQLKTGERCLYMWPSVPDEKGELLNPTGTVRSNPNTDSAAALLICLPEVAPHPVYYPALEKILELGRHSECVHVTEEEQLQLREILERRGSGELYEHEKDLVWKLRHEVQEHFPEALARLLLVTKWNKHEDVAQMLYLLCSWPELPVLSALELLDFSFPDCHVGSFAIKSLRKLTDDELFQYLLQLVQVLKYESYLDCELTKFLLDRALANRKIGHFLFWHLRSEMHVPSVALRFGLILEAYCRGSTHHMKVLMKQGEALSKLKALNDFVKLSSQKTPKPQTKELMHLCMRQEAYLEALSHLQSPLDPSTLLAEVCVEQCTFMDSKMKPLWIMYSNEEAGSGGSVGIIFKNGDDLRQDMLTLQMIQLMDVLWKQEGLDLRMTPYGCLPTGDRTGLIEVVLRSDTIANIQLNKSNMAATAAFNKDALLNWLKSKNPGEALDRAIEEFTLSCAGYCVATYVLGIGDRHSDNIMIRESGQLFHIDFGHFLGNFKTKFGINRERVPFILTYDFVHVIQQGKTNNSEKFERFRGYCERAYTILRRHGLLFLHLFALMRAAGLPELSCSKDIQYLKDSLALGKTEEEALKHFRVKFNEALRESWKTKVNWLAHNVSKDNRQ
Assay: PI3Kδ Scintillation Proximity Assay
Method: The kinase reaction was conducted in polystyrene 384-well matrix white plate from Thermo Fisher Scientific in a final volume of 25 μL. Inhibitors were first diluted serially in DMSO and added to the plate wells before the addition of other reaction components. The final concentration of DMSO in the assay was 0.5%. The PI3K assays were carried out at room temperature in 20 mM MOPS, pH 6.7, 10 mM MgCl2, 5 mM DTT and CHAPS 0.03%. Reactions were initiated by the addition of ATP, the final reaction mixture consisted of 20 μM PIP2, 20 μM ATP, 0.2 μCi [γ-33P] ATP, 4 nM PI3Kδ. Reactions were incubated for 210 min and terminated by the addition of 40 μL SPA beads suspended in quench buffer: 150 mM potassium phosphate pH 8.0, 20% glycerol. 25 mM EDTA, 400 µM ATP. The final concentration of SPA beads was 1.0 mg/mL. After the plate sealing, plates were shaken overnight at room temperature and centrifuged at 1800 rpm for 10 minutes, the radioactivity of the product was determined by scintillation counting on Topcount (Perkin-Elmer).

Compound CCOc1c(C(C)n2nc(C)c3c(N)ncnc32)cc(C)c(C#N)c1C1CN(c2ccc(C(=O)N(C)C)nc2)C1 (stereo unspecified) [US11433071, Example 344] has an IC50 of under 0.01 µM.
